Data published in the NIST ThermoML archive (doi:10.1016/j.jct.2007.09.007).

Experiment: xn = mol fraction of the nth substance listed
Settings: 100 kPa, Liquid

CCCCOCCCC [dibutyl ether] + CC#N
mass density [kg/m3]
Settings | 288.15 K | 293.15 K | 298.15 K | 303.15 K
x1 = 0.02 | 786.5 ± 0.46 | 781.19 ± 0.47 | 775.84 ± 0.48 | 770.48 ± 0.49
x1 = 0.0339 | 785.97 ± 0.46 | 780.66 ± 0.47 | 775.34 ± 0.48 | 770.01 ± 0.49
x1 = 0.0514 | 785.31 ± 0.46 | 780.03 ± 0.47 | 774.76 ± 0.48 | 769.46 ± 0.49
x1 = 0.096 | 783.78 ± 0.47 | 778.6 ± 0.47 | 773.41 ± 0.48 | 768.2 ± 0.49
x1 = 0.1542 | 782.12 ± 0.47 | 777.03 ± 0.48 | 771.94 ± 0.49 | 766.82 ± 0.5
x1 = 0.1891 | 781.24 ± 0.48 | 776.24 ± 0.48 | 771.18 ± 0.49 | 766.12 ± 0.5
x1 = 0.2048 | 780.89 ± 0.48 | 775.91 ± 0.48 | 770.88 ± 0.49 | 765.83 ± 0.5
x1 = 0.2371 | 780.21 ± 0.48 | 775.27 ± 0.49 | 770.29 ± 0.5 | 765.28 ± 0.5
x1 = 0.2433 | 780.08 ± 0.48 | 775.16 ± 0.49 | 770.18 ± 0.5 | 765.18 ± 0.5
x1 = 0.254 | 779.88 ± 0.48 | 774.97 ± 0.49 | 770 ± 0.5 | 765.01 ± 0.5
x1 = 0.2763 | 779.47 ± 0.48 | 774.58 ± 0.49 | 769.65 ± 0.5 | 764.68 ± 0.51
x1 = 0.3218 | 778.71 ± 0.49 | 773.86 ± 0.5 | 768.99 ± 0.5 | 764.07 ± 0.51
x1 = 0.3456 | 778.33 ± 0.49 | 773.51 ± 0.5 | 768.67 ± 0.51 | 763.78 ± 0.51
x1 = 0.3553 | 778.18 ± 0.49 | 773.39 ± 0.5 | 768.55 ± 0.51 | 763.68 ± 0.51
x1 = 0.4008 | 777.55 ± 0.5 | 772.8 ± 0.5 | 768.01 ± 0.51 | 763.2 ± 0.52
x1 = 0.4461 | 777.02 ± 0.5 | 772.3 ± 0.51 | 767.57 ± 0.52 | 762.79 ± 0.52
x1 = 0.4902 | 776.53 ± 0.51 | 771.85 ± 0.52 | 767.15 ± 0.52 | 762.42 ± 0.53
x1 = 0.5653 | 775.78 ± 0.52 | 771.18 ± 0.53 | 766.56 ± 0.53 | 761.87 ± 0.54
x1 = 0.5808 | 775.64 ± 0.52 | 771.05 ± 0.53 | 766.44 ± 0.53 | 761.78 ± 0.54
x1 = 0.6292 | 775.21 ± 0.53 | 770.68 ± 0.53 | 766.11 ± 0.54 | 761.48 ± 0.55
x1 = 0.6996 | 774.64 ± 0.54 | 770.17 ± 0.55 | 765.64 ± 0.55 | 761.1 ± 0.56
x1 = 0.7545 | 774.22 ± 0.55 | 769.79 ± 0.56 | 765.3 ± 0.56 | 760.8 ± 0.57
x1 = 0.8041 | 773.84 ± 0.56 | 769.45 ± 0.56 | 765 ± 0.57 | 760.54 ± 0.58
x1 = 0.8421 | 773.56 ± 0.57 | 769.21 ± 0.57 | 764.78 ± 0.58 | 760.34 ± 0.58
x1 = 0.8638 | 773.4 ± 0.57 | 769.06 ± 0.58 | 764.65 ± 0.58 | 760.23 ± 0.59
x1 = 0.9076 | 773.09 ± 0.58 | 768.76 ± 0.58 | 764.38 ± 0.59 | 759.98 ± 0.6
x1 = 0.95 | 772.82 ± 0.59 | 768.49 ± 0.59 | 764.12 ± 0.6 | 759.75 ± 0.6
x1 = 0.9777 | 772.59 ± 0.59 | 768.29 ± 0.6 | 763.95 ± 0.6 | 759.6 ± 0.61
x1 = 0.9902 | 772.49 ± 0.6 | 768.2 ± 0.6 | 763.86 ± 0.61 | 759.52 ± 0.61

± gives the expanded uncertainty stated by the source.
